Measured values taken from US20170119760A1 (AB SCIENCE, priority 2015, published 2017).

What was measured:
[1] = system: tyrosine hydroxylase expression; assay: MPTP mouse model: tyrosine hydroxylase ELISA assay of total brain protein extract; conditions: MPTP alone
[2] = system: tyrosine hydroxylase expression; assay: MPTP mouse model: tyrosine hydroxylase western blotting of total brain protein extract; conditions: MPTP alone (4 × 20 mg/kg), solvent treated, control = 100

## CN1CC=C(c2ccccc2)CC1 [MPTP, 1-methyl-4-phenyl-1,2,3,6-tetrahydropyridine, reference compound]
[1]
  tyrosine hydroxylase expression after MPTP treatment with respect to control: significant decrease
[2]
  Relative average expression of tyrosine hydroxylase: 77
